Data: US12421212B2, “Substituted benzenecarboxamides as IL-17A modulators” (DiCE Alpha, Inc., priority 2019, dated 2025)

Protein sequences, listed by entry. Tags and fused reporters are not part of them. Residues count along the entry.
UniProt Q16552, 24-155 limits assumed: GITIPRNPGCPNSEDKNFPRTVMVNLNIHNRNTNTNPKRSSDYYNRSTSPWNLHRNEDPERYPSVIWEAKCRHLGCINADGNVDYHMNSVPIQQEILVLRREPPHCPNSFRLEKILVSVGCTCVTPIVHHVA

Target: IL-17A/A (Homo sapiens, UniProt Q16552)
Experiment: IL-17A/A HEK-Blue Cell Assay
Details: HEK-Blue IL-17A reporter cell line, SEAP readout at A630, 20 hours incubation with IL-17A/A; top concentration 10 uM, 1 uM or 0.3 uM

Compound | IL-17A/A inhibition (pIC50)
[2H]C([2H])([2H])N1CCN(C(=O)[C@H](NC(=O)CC)[C@@H](C)c2ccc(NC(=O)[C@@H](NC(=O)c3nonc3CC)[C@H]3CC[C@H](C)CC3)c(F)c2)CC1 | B (8>B≥7 as B)
CCc1nonc1C(=O)N[C@H](C(=O)Nc1ccc([C@H](C)[C@@H](NC(=O)N(C)C2CC2)C(=O)N2CCN(C)C(C)(C)C2)cc1F)[C@H]1CC[C@H](C)CC1 | A (compounds having a pIC50 of greater than or equal 8 as A)
CC(C)n1nccc1C(=O)N[C@H](C(=O)Nc1ccc([C@H](C)[C@@H](NC(=O)c2cnns2)C(=O)N2CCN(C)CC2)cc1)C1CCCCCC1 | A (compounds having a pIC50 of greater than or equal 8 as A)
CCn1nccc1C(=O)N[C@H](C(=O)Nc1ccc([C@H](C)[C@@H](NC(=O)c2cnc(C)s2)C(=O)N2CCN(C)CC2)cc1F)C1CCCCC1 | C (7>C≥5)
CCn1nccc1C(=O)N[C@H](C(=O)Nc1ccc(C[C@@H](NC(=O)NC2CC2)C(=O)N2CCN(C)CC2)cc1F)C1CCCCC1 | C (7>C≥5)
CCC(=O)N[C@@H](C(=O)N1CCN(C)CC1)[C@@H](C)c1ccc(NC(=O)C(NC(=O)c2ccnn2CC)C(CC)c2ccc(Cl)cc2)c(F)c1 (single isomer, unassigned) | A (compounds having a pIC50 of greater than or equal 8 as A)
C[C@@H](c1ccc(NC(=O)[C@@H](NC(=O)C(F)(F)c2cccc(C#N)c2)C2CCCCCC2)c(F)c1)[C@@H](NC(=O)c1ccnn1C1CCN(C)CC1)C(=O)N1CCOCC1 | A (compounds having a pIC50 of greater than or equal 8 as A)
CCc1nocc1C(=O)N[C@H](C(=O)Nc1ccc([C@H](C)[C@@H](NC(=O)c2cncs2)C(=O)N2CCN(C)CC2)cc1F)C1CCCCCC1 | A (compounds having a pIC50 of greater than or equal 8 as A)
